Assay results taken from patent publication US20050202522A1, “Method of screening for antimicrobial agents” (NATIONAL INSTITUTE OF ADVANCED INDUSTRIAL SCIENCE AND …, priority 2003, published 2005).

Test system: FFRP pot1216151
Assay: Gel filtration analysis of changes in assemblies of the FFRP induced by amino acids and metabolic intermediates
Format: binding, Pyrococcus sp. OT3
Conditions: metabolic intermediate 10 mM
Method: Changes in assemblies of the FFRP pot1216151 induced by interaction with amino acids and metabolic intermediates were analyzed in solution using gel filtration.
Gel filtration was carried out at a flow rate 1 ml/min, using a matrix (Protein Pak 125, 7.8×300 mm, Waters) and a 50 mM Tris-HCl buffer (pH 7.0) containing 300 mM sodium chloride. Flow of the protein was monitored by measuring the UV absorbance at 220 nm (LC Module I plus system, Waters). The FFRP pot1216151 purified by method 2, i.e., the rigorous method, was dissolved in 50 mM Tris-HCl buffer (pH 7.0) containing 200 mM sodium chloride, and kept at −80° C. until it was diluted by 10-fold with a 50 mM Tris-HCl buffer (pH 7.0) containing 300 mM sodium chloride, and mixed with each potential ligand for at least 30 minutes at room temperature (about 25° C.). In the mixture, the monomer concentration of the FFRP was approximately 100 μM.

Question: Which results are given for `O=C(O)CCC(=O)C(=O)O` [2-oxoglutaric acid]?
Answer: gel filtration peak that increased (FFRP monomer approximately 100 μM, at least 30 minutes at room temperature, UV 220 nm): the third peak increased; concluded effect on assembling of the protein (gel filtration): stabilizing intermediate assemblies
